Values of other authors as cited in paper PMC9722229 (European journal of pharmacology, 2019).

Sequences of proteins named here, by UniProt entry; tags and fusion partners are left off.
UniProt P23977, whole entry: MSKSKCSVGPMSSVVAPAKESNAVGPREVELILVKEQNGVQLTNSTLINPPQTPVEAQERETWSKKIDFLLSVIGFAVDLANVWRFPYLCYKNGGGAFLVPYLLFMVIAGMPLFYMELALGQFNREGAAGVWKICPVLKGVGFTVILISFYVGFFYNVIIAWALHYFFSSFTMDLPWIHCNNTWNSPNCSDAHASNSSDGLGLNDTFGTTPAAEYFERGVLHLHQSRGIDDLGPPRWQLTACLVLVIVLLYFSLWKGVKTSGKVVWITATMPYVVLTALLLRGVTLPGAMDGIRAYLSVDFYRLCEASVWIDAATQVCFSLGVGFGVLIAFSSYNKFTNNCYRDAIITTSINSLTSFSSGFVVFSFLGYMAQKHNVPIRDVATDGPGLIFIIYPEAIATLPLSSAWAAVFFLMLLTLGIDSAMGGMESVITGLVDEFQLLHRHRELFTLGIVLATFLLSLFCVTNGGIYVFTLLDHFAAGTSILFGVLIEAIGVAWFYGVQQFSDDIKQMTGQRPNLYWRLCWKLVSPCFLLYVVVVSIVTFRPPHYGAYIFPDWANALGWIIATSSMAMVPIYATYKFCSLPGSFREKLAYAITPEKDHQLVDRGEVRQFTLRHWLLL

Target: DAT (Rattus norvegicus, UniProt P23977)
Settings: read-out: DAT uptake, Ki, [3H]DA; rat brain synaptosomes; ref Dutta et al., 2008; cited from earlier work

## CN(C)CCCN1c2ccccc2CCc2ccccc21 [Imipramine]
  pKi: 5.77

pKi: −log10 of the molar value.
